Data: ChEMBL document CHEMBL1125142, “Highly selective kappa-opioid analgesics. 3. Synthesis and structure-activity relationships of novel N-[2-(1-pyrrolidinyl)-4- or -5-substituted-cyclohexyl]arylacetamide derivatives” (1990)

Experiment: In vitro binding selectivity for mu to kappa opioid receptors.

## CN(C(=O)Cc1cccc2occc12)[C@@H]1CC[C@]2(CCCO2)C[C@H]1N1CCCC1
  Ratio: 1520
